Earlier results as cited in patent US10927398B2, “Compositions for CYP450 phenotyping using saliva samples” (Concordia University, Inc., priority 2015, dated 2021).

Details: Table of Exemplary Drugs, CYP3A4; cited from earlier work

## CN(C)CCc1c[nH]c2ccc(CS(=O)(=O)N3CCCC3)cc12 [Almortriptan (Axert), Almortriptan]
  HALF-LIFE: 3.5 h
